Earlier results, collected in patent publication US12174205B2, “Phosphatidylethanolamine-specific probes” (Northwestern University, priority 2014, dated 2024).

Conditions: at micromolar concentration: membrane distortion, PE translocation

Duramycin
cytotoxicity: exhibit cytotoxicity
